The assay deals with T1, mesotrypsin (Homo sapiens, UniProt P35030).
T1 construct: made in house; host or cells: E. coli
T1 sequence (P35030 81-304 limits assumed): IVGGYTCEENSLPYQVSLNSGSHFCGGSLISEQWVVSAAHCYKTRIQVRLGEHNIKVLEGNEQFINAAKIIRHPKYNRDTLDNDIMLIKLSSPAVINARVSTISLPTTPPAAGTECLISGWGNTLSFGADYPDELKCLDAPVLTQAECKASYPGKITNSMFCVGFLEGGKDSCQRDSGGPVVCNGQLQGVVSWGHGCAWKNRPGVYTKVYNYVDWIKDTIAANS
The assay can be described thus: Competitive inhibition of mesotrypsin (cleavage of chromogenic substrate Z-GPR-pNA). It counts as biochemical. The settings on record: Ki (M).

SMILES strings stand for the structures.

By Ki is commonly meant a dissociation constant, usually derived from enzyme kinetics or from competition with a known ligand. Lower therefore signals higher affinity. As for `CC[C@H](C)[C@H](NC(=O)[C@H](C)NC(=O)[C@H](CO)NC(=O)CNC(=O)[C@@H]1CSSC[C@H](NC(=O)[C@@H](NC(=O)[C@@H](N)CCC(=O)O)C(C)C)C(=O)N[C@@H](CO)C(=O)N[C@@H](CCC(=O)O)C(=O)N[C@@H](CCC(N)=O)C(=O)N[C@@H](C)C(=O)N[C@@H](CCC(=O)O)C(=O)N[C@@H]([C@@H](C)O)C(=O)NCC(=O)N2CCC[C@H]2C(=O)N[C@H]2CSSC[C@@H]3NC(=O)CNC(=O)CNC(=O)[C@H](Cc4ccc(O)cc4)NC(=O)[C@H](Cc4ccccc4)NC(=O)[C@H](Cc4ccccc4)NC(=O)[C@@H]4CCCN4C(=O)[C@H](C)NC(=O)[C@H](CSSC[C@H](NC(=O)[C@H](Cc4ccc(O)cc4)NC(=O)[C@H](CCC(=O)O)NC(=O)[C@H](CCC(=O)O)NC(=O)[C@H]([C@@H](C)O)NC(=O)[C@H](CC(=O)O)NC(=O)CNC(=O)[C@H](CC(N)=O)NC(=O)[C@H](CC(N)=O)NC(=O)[C@H](CCCNC(=N)N)NC(=O)[C@H](CC(N)=O)NC(=O)CNC(=O)CNC3=O)C(=O)N[C@@H](CCSC)C(=O)N[C@@H](C)C(=O)N[C@@H](C(C)C)C(=O)N1)NC(=O)[C@H](CCCCN)NC(=O)CNC(=O)[C@H](CCC(=O)O)NC(=O)[C@H]([C@@H](C)O)NC(=O)[C@H](C(C)C)NC(=O)[C@H](CC(=O)O)NC(=O)[C@H](Cc1ccccc1)NC(=O)[C@H](Cc1ccc(O)cc1)NC(=O)[C@H](Cc1c[nH]c3ccccc13)NC(=O)[C@H](CCCNC(=N)N)NC(=O)[C@H](CO)NC(=O)[C@H]([C@@H](C)CC)NC(=O)[C@H](CCSC)NC(=O)[C@H](C)NC(=O)[C@H](CCCCN)NC2=O)C(=O)O` [APPI-R15K], the Ki turned out to be 3.5e-07 M.

Take `CC[C@H](C)[C@H](NC(=O)[C@H](C)NC(=O)[C@H](CO)NC(=O)CNC(=O)[C@@H]1CSSC[C@H](NC(=O)[C@@H](NC(=O)[C@@H](N)CCC(=O)O)C(C)C)C(=O)N[C@@H](CO)C(=O)N[C@@H](CCC(=O)O)C(=O)N[C@@H](CCC(N)=O)C(=O)N[C@@H](C)C(=O)N[C@@H](CCC(=O)O)C(=O)N[C@@H]([C@@H](C)O)C(=O)NCC(=O)N2CCC[C@H]2C(=O)N[C@H]2CSSC[C@@H]3NC(=O)CNC(=O)CNC(=O)[C@H](Cc4ccc(O)cc4)NC(=O)[C@H](Cc4ccccc4)NC(=O)[C@H](Cc4ccccc4)NC(=O)[C@@H]4CCCN4C(=O)[C@H](C)NC(=O)[C@H](CSSC[C@H](NC(=O)[C@H](Cc4ccc(O)cc4)NC(=O)[C@H](CCC(=O)O)NC(=O)[C@H](CCC(=O)O)NC(=O)[C@H]([C@@H](C)O)NC(=O)[C@H](CC(=O)O)NC(=O)CNC(=O)[C@H](CC(N)=O)NC(=O)[C@H](CC(N)=O)NC(=O)[C@H](CCCNC(=N)N)NC(=O)[C@H](CC(N)=O)NC(=O)CNC(=O)CNC3=O)C(=O)N[C@@H](CCSC)C(=O)N[C@@H](C)C(=O)N[C@@H](C(C)C)C(=O)N1)NC(=O)[C@H](CCCCN)NC(=O)CNC(=O)[C@H](CCC(=O)O)NC(=O)[C@H]([C@@H](C)O)NC(=O)[C@H](C(C)C)NC(=O)[C@H](CC(=O)O)NC(=O)[C@H](Cc1ccccc1)NC(=O)[C@H](Cc1ccc(O)cc1)NC(=O)[C@H](Cc1c[nH]c3ccccc13)NC(=O)[C@H](CCCNC(=N)N)NC(=O)[C@H](CO)NC(=O)[C@H]([C@@H](C)CC)NC(=O)[C@H](C)NC(=O)[C@H](C)NC(=O)[C@H](CCCNC(=N)N)NC2=O)C(=O)O` [APPI-M17A]: the affinity, expressed as Ki, was 1.71e-08 M.

`CC[C@H](C)[C@H](NC(=O)[C@H](C)NC(=O)[C@H](CO)NC(=O)CNC(=O)[C@@H]1CSSC[C@H](NC(=O)[C@@H](NC(=O)[C@@H](N)CCC(=O)O)C(C)C)C(=O)N[C@@H](CO)C(=O)N[C@@H](CCC(=O)O)C(=O)N[C@@H](CCC(N)=O)C(=O)N[C@@H](C)C(=O)N[C@@H](CCC(=O)O)C(=O)N[C@@H]([C@@H](C)O)C(=O)NCC(=O)N2CCC[C@H]2C(=O)N[C@H]2CSSC[C@@H]3NC(=O)CNC(=O)CNC(=O)[C@H](Cc4ccc(O)cc4)NC(=O)[C@H](Cc4ccccc4)NC(=O)[C@H](Cc4ccccc4)NC(=O)[C@@H]4CCCN4C(=O)[C@H](C)NC(=O)[C@H](CSSC[C@H](NC(=O)[C@H](Cc4ccc(O)cc4)NC(=O)[C@H](CCC(=O)O)NC(=O)[C@H](CCC(=O)O)NC(=O)[C@H]([C@@H](C)O)NC(=O)[C@H](CC(=O)O)NC(=O)CNC(=O)[C@H](CC(N)=O)NC(=O)[C@H](CC(N)=O)NC(=O)[C@H](CCCNC(=N)N)NC(=O)[C@H](CC(N)=O)NC(=O)CNC(=O)CNC3=O)C(=O)N[C@@H](CCSC)C(=O)N[C@@H](C)C(=O)N[C@@H](C(C)C)C(=O)N1)NC(=O)[C@H](CCCCN)NC(=O)CNC(=O)[C@H](CCC(=O)O)NC(=O)[C@H]([C@@H](C)O)NC(=O)[C@H](C(C)C)NC(=O)[C@H](CC(=O)O)NC(=O)[C@H](Cc1ccccc1)NC(=O)[C@H](Cc1ccc(O)cc1)NC(=O)[C@H](Cc1c[nH]c3ccccc13)NC(=O)[C@H](CCCNC(=N)N)NC(=O)[C@H](CO)NC(=O)[C@H]([C@@H](C)CC)NC(=O)[C@H](Cc1ccc(O)cc1)NC(=O)[C@H](C)NC(=O)[C@H](CCCNC(=N)N)NC2=O)C(=O)O` [APPI-M17Y] returned a Ki of 5.33e-08 M.

In turn, `CC[C@H](C)[C@H](NC(=O)[C@H](C)NC(=O)[C@H](CO)NC(=O)CNC(=O)[C@@H]1CSSC[C@H](NC(=O)[C@@H](NC(=O)[C@@H](N)CCC(=O)O)C(C)C)C(=O)N[C@@H](CO)C(=O)N[C@@H](CCC(=O)O)C(=O)N[C@@H](CCC(N)=O)C(=O)N[C@@H](C)C(=O)N[C@@H](CCC(=O)O)C(=O)N[C@@H]([C@@H](C)O)C(=O)NCC(=O)N2CCC[C@H]2C(=O)N[C@H]2CSSC[C@@H]3NC(=O)CNC(=O)CNC(=O)[C@H](Cc4ccc(O)cc4)NC(=O)[C@H](Cc4ccccc4)NC(=O)[C@H](Cc4ccccc4)NC(=O)[C@@H]4CCCN4C(=O)[C@H](C)NC(=O)[C@H](CSSC[C@H](NC(=O)[C@H](Cc4ccc(O)cc4)NC(=O)[C@H](CCC(=O)O)NC(=O)[C@H](CCC(=O)O)NC(=O)[C@H]([C@@H](C)O)NC(=O)[C@H](CC(=O)O)NC(=O)CNC(=O)[C@H](CC(N)=O)NC(=O)[C@H](CC(N)=O)NC(=O)[C@H](CCCNC(=N)N)NC(=O)[C@H](CC(N)=O)NC(=O)CNC(=O)CNC3=O)C(=O)N[C@@H](CCSC)C(=O)N[C@@H](C)C(=O)N[C@@H](C(C)C)C(=O)N1)NC(=O)[C@H](CCCCN)NC(=O)CNC(=O)[C@H](CCC(=O)O)NC(=O)[C@H]([C@@H](C)O)NC(=O)[C@H](C(C)C)NC(=O)[C@H](CC(=O)O)NC(=O)[C@H](Cc1ccccc1)NC(=O)[C@H](Cc1ccc(O)cc1)NC(=O)[C@H](Cc1c[nH]c3ccccc13)NC(=O)[C@H](CCCNC(=N)N)NC(=O)[C@H](CO)NC(=O)[C@H]([C@@H](C)CC)NC(=O)[C@H](CCSC)NC(=O)[C@H](C)NC(=O)[C@H](CCCNC(=N)N)NC2=O)C(=O)O` [APPI-wt, Alzheimer's amyloid-protein precursor inhibitor, reference compound] came in with a Ki of 1.36e-07 M.

The values are drawn from patent US20120094923A1, “METHODS AND MATERIALS FOR ASSESSING PROSTATE CANCER RECURRENCE AND REDUCING MESOTRYPSIN ACTIVITY” (priority 2010, published 2012).
